In PubChem BioAssay AID624246 (National Center for Advancing Translational Sciences (NCATS), 2012) one finds FP activity, negative = inhibition data, which are given here for 101 compounds.

Sequences of proteins named here, by UniProt entry; tags and fusion partners are left off. A change or cut given only in a name is not applied to a line headed by its entry.
UniProt P11308: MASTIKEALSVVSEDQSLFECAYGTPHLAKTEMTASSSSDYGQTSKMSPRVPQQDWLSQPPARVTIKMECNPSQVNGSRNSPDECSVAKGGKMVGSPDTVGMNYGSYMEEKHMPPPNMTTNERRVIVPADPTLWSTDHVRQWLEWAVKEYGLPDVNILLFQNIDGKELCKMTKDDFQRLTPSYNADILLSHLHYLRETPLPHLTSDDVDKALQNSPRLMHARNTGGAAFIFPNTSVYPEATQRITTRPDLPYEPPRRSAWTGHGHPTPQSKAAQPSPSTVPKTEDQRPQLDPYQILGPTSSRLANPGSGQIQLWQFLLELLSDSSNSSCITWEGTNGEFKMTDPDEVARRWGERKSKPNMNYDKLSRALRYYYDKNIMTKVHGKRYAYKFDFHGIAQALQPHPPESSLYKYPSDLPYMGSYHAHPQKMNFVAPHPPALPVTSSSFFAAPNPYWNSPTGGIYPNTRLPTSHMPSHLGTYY

The entries are a selection whose mix differs from that of the whole data set. Activity calls are given as the source filed them. Calls follow the shape of the dose curve; as a rule, active = well fitted inhibition curve with a large enough effect in the polarisation, with a control signal flat; inconclusive = small, poorly fitted or top-dose-only effect, or effect the other way, or a change in a side signal; inactive = no such curve, though single readings can be large or run the other way; the % refers to the polarisation.

The target of this experiment is Transcriptional regulator ERG (Homo sapiens) (UniProt P11308). Briefly: qHTS for Small Molecule Inhibitors of the ERG Ets/DNA interaction. Also: % of control where 0% means no effect. The following applies: fluorescence polarization, His-ERG Ets domain / labelled DNA; at 76.9 µM (top of the series). From the text: The Ets family of proteins is a family of ~30 conserved transcription factors defined by the presence of an ~85 amino acid domain referred to as the Ets domain, which mediates sequence-specific DNA binding to a core DNA element GGAA/T.The Ets family member ERG has been linked to several neoplasms. […] More extensive studies of the effects of over-expression of ERG in prostate cells have recently been carried out and have shown that over-expression of ERG results in increased invasion. […] We will carry out a high throughout screen to identify inhibitors of the interaction between ERG and DNA using a fluorescence polarization (FP) assay with a His-tagged ERG Ets domain and fluorescently-labeled DNA probes to develop small molecule inhibitors of this interaction as probes to test this hypothesis and lay the groundwork for the development of targeted therapies against ERG. NIH Molecular Libraries Probe Production Network [MLPCN] NIH Chemical Genomics Center [NCGC] Grant: NS066464 PI Name: John Bushweller, University of Virgina
1.5 ul of protein solution (1 uM ERG domain in 300mM KCl, 50mM Tris-HCl, 1mM EDTA, 1mM DTT, pH 7.5); 20 nl Control plate and compound library plate; 1.5 ul mixture of 5 nM Fluorescein-DNA and 100nM Texas-615-DNA solution in same buffer as above solution; measure fluorescence polarization sequentially for fluorescein (Excitation = 480 nm, Emission = 535s, 535p nm) and Texas red (Excitation = 555 nm, Emission = 632s, 632p nm).
`O=P1(N(CCCl)CCCl)OCCC2CCCCN21` (stereo unspecified): the FP activity, negative = inhibition is inactive: 3.71%.
As for `CCNC(=S)/N=C(\N)N[N+](=O)[O-]`, the figure is inactive: 12.5%; as for `O=C(NC1CCS(=O)(=O)C1)NP(=S)(Oc1ccccc1)Oc1ccccc1` (stereo unspecified), inactive: -15.9%; as for `c1ccc(-c2nn[nH]n2)c(-c2nn[nH]n2)c1`, inactive: -5.43%.
As for `Cc1ccc(NP(=O)(Oc2cccc(C)c2)Oc2cccc(C)c2)nc1`, the figure is inactive: 0.92%.
As for `Cc1ccccc1OP(=O)(Nc1ccccn1)Oc1ccccc1C`, the figure is inactive: -18.3%.
For `CC(NC(=O)COC(=O)C(O)(c1ccccc1)c1ccccc1)c1ccccc1` (stereo unspecified), the FP activity, negative = inhibition is inactive: 4.79%.
As for `CN(C)C(=O)Oc1noc2ccccc12`, the figure is inactive: -3.43%.
As for `O=c1c2cc([N+](=O)[O-])ccc2[nH]c2c([N+](=O)[O-])cc([N+](=O)[O-])cc12`, the figure is inactive: 4.32%.
On to `COC(=O)c1cc2c(s1)N=C(c1ccccc1)N(C)P2(=O)N1CCOCC1` (stereo unspecified), for which the FP activity, negative = inhibition was inactive: -5.3%.
The figure for `Cc1ccc(OP(=O)(Nc2ccccn2)Oc2ccc(C)cc2)cc1` is inactive: -2.19%; for `CC(=O)NC(SC(=S)N(CC(C)C)CC(C)C)C(Cl)(Cl)Cl` (stereo unspecified) it is inactive: -6.08%; for `O=C(OC1CN2CCC1CC2)c1ccccc1` (stereo unspecified) it is inactive: 12.2%.
As to `CCC(=O)N1C2C3N(C(=O)CC)C1C1N(C(=O)CC)C(C(N1C(=O)CC)N3C(=O)CC)N2C(=O)CC`, the FP activity, negative = inhibition was inactive: -0.235%.
As for `CCc1cc(O)c([N+](=O)[O-])c(C)c1[N+](=O)[O-]`, the figure is inactive: 26.3%.
As for `CC(C)(C)C(=O)NC(Sc1ccccc1)C(Cl)(Cl)Cl` (stereo unspecified), the figure is inactive: -9.55%; as for `O=P1(Nc2nc3ccc(Cl)cc3s2)COc2ccccc2O1` (stereo unspecified), inactive: 6.53%; as for `CCOc1ccc(C2=NCC(CBr)S2)cc1` (stereo unspecified), inactive: -2.46%.
The figure for `CC(=O)Nc1ccc([As](=O)(O)O)c(O)c1` is inactive: -3.52%.
Turning to `CC(=O)Nc1ccc(Oc2c([N+](=O)[O-])cc([N+](=O)[O-])cc2[N+](=O)[O-])cc1`, the FP activity, negative = inhibition is inactive: -4.77%.
The figure for `N#C/C(=C\c1ccc(N(CCBr)CCBr)cc1)C(N)=O` is inactive: 3.39%; for `CC(=O)c1ccc(N2CC2c2ccncc2)cc1` (stereo unspecified) it is inactive: -11.7%; for `COC(=O)C1(C)COP(=O)(NCc2ccccc2)OC1` (stereo unspecified) it is inactive: 7.11%.
The figure for `C[C@@H]1C=CCP(=O)(Oc2ccccc2)O1` (stereo partly specified) is inactive: -0.95%; for `C[C@H]1OP(=O)(Oc2ccccc2)C[C@@H]2O[C@@H]21` (stereo partly specified) it is inactive: -5.42%; for `c1nnnn1CCn1cnnn1` it is inactive: 2.77%.
For `CC(C)C(=O)NC(Sc1ccccc1)C(Cl)(Cl)Cl` (stereo unspecified), the FP activity, negative = inhibition was inactive: 0.0519%.
The figure for `O=P(Nc1nccs1)(c1ccccc1)c1ccccc1` is inactive: -5.09%.
The figure for `O=P(Nc1nc2ccccc2s1)(c1ccccc1)c1ccccc1` is inactive: -4.18%.
The figure for `C[C@H]1OP(=O)(Oc2ccccc2)[C@H](O)[C@H](O)[C@H]1N=[N+]=[N-]` (stereo partly specified) is inactive: 8.57%; for `COc1ccc(N)c([N+](=O)[O-])c1[N+](=O)[O-]` it is inactive: 13.6%.
`O=P(Nc1ccccn1)(c1ccc(Br)cc1)c1ccc(Br)cc1`: the FP activity, negative = inhibition is inactive: 6.86%.
The figure for `CN(C)C1(CNC(=O)c2ccc(Cl)c(S(N)(=O)=O)c2)CCCCC1` is inactive: -13.9%; for `Nc1ccc([As](=O)(O)c2ccc([N+](=O)[O-])cc2)cc1` it is inactive: -6.64%; for `C(Cc1nn[nH]n1)Cc1nn[nH]n1` it is inactive: -2.18%.
The figure for `O=C(OC1CN2CCC1CC2)c1cccc(Cl)c1` (stereo unspecified) is inactive: -8.13%; for `O=[N+]([O-])c1ccc(O)c(/C=N/Nc2ccc([N+](=O)[O-])cc2[N+](=O)[O-])c1` it is inactive: -7.47%.
As for `O=[N+]([O-])c1ncn(CCn2cnc([N+](=O)[O-])n2)n1`, the figure is inactive: -16.1%.
With `CC(=O)NC(SC(=S)N(C)C)C(Cl)(Cl)Cl` (stereo unspecified), the FP activity, negative = inhibition was inactive: -3.54%.
As for `O=[As](O)(c1ccccc1)c1ccc(O)cc1`, the figure is inactive: 13.8%; as for `O=C(Nc1cc([As](=O)(O)O)ccc1O)c1ccccc1`, inactive: 15.2%.
The figure for `O=P1(N(CCCl)CCCl)OCCCS1` (stereo unspecified) is inactive: -1.13%; for `O=[N+]([O-])c1cccc(NC2=NCC(CBr)S2)c1` (stereo unspecified) it is inactive: 1.73%; for `COC(=O)C1(C)COP(=O)(Nc2ccccc2)OC1` (stereo unspecified) it is inactive: 4.73%.
The figure for `O=C(O)CNc1ccc([As](=O)(O)O)cc1` is inactive: 16.8%.
Consider `CC(C)(C)C(=O)NC(Sc1ccncn1)C(Cl)(Cl)Cl` (stereo unspecified), for which the FP activity, negative = inhibition was inactive: 8.27%.
The figure for `O=[N+]([O-])c1ncn(CCn2ncnc2[N+](=O)[O-])n1` is inactive: -7.18%.
The figure for `O=[N+]([O-])c1cccc2n[nH]nc12` is inactive: 2.63%.
Regarding `CC(=O)N1C2C3N(C(C)=O)C1C1N(C(C)=O)C(C(N1C(C)=O)N3C(C)=O)N2C(C)=O`, the FP activity, negative = inhibition is inactive: 3.85%.
The figure for `Cc1ccc(NP(=O)(Oc2ccccc2)Oc2ccccc2)nc1` is inactive: 18.1%; for `CCc1nc2c(n1)c1c(non1O)c1c2no[n+]1[O-]` it is inactive: -2.06%.
The figure for `O=[N+]([O-])c1cc([N+](=O)[O-])c(CCNc2ccccc2)c([N+](=O)[O-])c1` is inactive: 0.983%.
With `COc1ccc(C2=NCC(CBr)S2)cc1` (stereo unspecified), the FP activity, negative = inhibition was inactive: 4.21%.
The figure for `CC(C)=N/N=C(\N)N[N+](=O)[O-]` is inactive: 7.99%; for `CN(C)C(=O)OCCc1n(C)cc[n+]1C` it is inactive: -2.79%.
Take `CC1CCN(C(=O)Oc2c(Cl)cc(Cl)c3cccnc23)CC1`: the FP activity, negative = inhibition is inactive: 0.845%.
For the compound `Nc1ccc([As](=O)(O)c2ccc(N)cc2)cc1`, the FP activity, negative = inhibition was inactive: -8.78%.
The figure for `C[N+]1=C2C=CC=CC=C2SC12C([N+](=O)[O-])=CC([N+](=O)[O-])=C[C-]2[N+](=O)[O-]` (stereo unspecified) is inactive: -8.37%.
`CCN(/C(=N/P(=O)(N1CCOCC1)N1CCOCC1)N1CCOCC1)c1ccc(OC)cc1`: the FP activity, negative = inhibition was inactive: -20.4%.
The figure for `COc1ccccc1OP(=O)(Nc1ccc(C)cn1)Oc1ccccc1OC` is inactive: 4.88%.
As for `Cc1ccc(OP(=O)(Nc2nccs2)Oc2ccc(C)cc2)cc1`, the figure is inactive: 3.44%.
As for `Clc1ccc(Cl)c(NC2=NCC(CBr)S2)c1` (stereo unspecified), the figure is inactive: -5.33%.
On to `CN1CCCC(OC(=O)C(c2ccccc2)c2ccccc2)C1` (stereo unspecified), for which the FP activity, negative = inhibition is inactive: 8.98%.
The figure for `NC(=O)c1cc([N+](=O)[O-])cc([N+](=O)[O-])c1N` is inactive: -2.63%; for `CN(C(=O)Cc1ccc(Cl)c(Cl)c1)[C@H]1CCCC[C@H]1N1CCCC1` it is inactive: -8.88%; for `Cc1ccc(N/C(=N/P(=O)(N2CCOCC2)N2CCOCC2)N2CCOCC2)cc1` it is inactive: -6.6%.
`Nc1cc(N)c2nonc2c1[N+](=O)[O-]`: the FP activity, negative = inhibition was inactive: -3.63%.
The figure for `O=C(NC(Sc1ccncn1)C(Cl)(Cl)Cl)c1ccccc1` (stereo unspecified) is inactive: 5.52%.
Consider `CCOP(=O)(Nc1ccccc1)OCC`, for which the FP activity, negative = inhibition is inactive: -11.4%.
As to `Cc1cc(SC(NC(=O)c2ccc(F)cc2)C(Cl)(Cl)Cl)ncn1` (stereo unspecified), the FP activity, negative = inhibition was inactive: -16.5%.
In the case of `Cc1ccc(NP(=O)(Oc2ccccc2F)Oc2ccccc2F)nc1`, the FP activity, negative = inhibition is inactive: 3.06%.
As for `CN(C(=O)Cc1ccc(Cl)c(Cl)c1)[C@H]1CCCC[C@@H]1N1CCCC1`, the figure is inactive: -12.1%.
On to `O=C(O)c1ccccc1[As](=O)(O)O`, for which the FP activity, negative = inhibition is inactive: 7.4%.
The figure for `CC(=O)Nc1ccc([As](=O)(O)O)cc1` is inactive: -10%; for `CCCC1OP(N)(=O)OCC1CC` (stereo unspecified) it is inactive: -8.09%; for `O=P(Nc1nc2ccc(Cl)cc2s1)(c1ccccc1)c1ccccc1` it is inactive: -3.14%.
Consider `CCN(N=Nc1nonc1N)c1nonc1N`, for which the FP activity, negative = inhibition is inactive: -11.2%.
In the case of `Nc1cccc2ccc([As](=O)(O)O)cc12`, the FP activity, negative = inhibition was inactive: -8.83%.
As for `Cc1ccc2nc3c(c(C)c2c1)CC(C(Cl)Cl)S3` (stereo unspecified), the figure is inactive: 2.35%; as for `Cc1ccc(OP(=O)(Nc2ccc([N+](=O)[O-])cn2)Oc2ccc(C)cc2)cc1`, inactive: -13.3%.
The figure for `O=[As](O)(c1ccc(O)cc1)c1ccccc1O` is inactive: -3.95%; for `C[As](=O)(O)c1cccc(C(=O)O)c1` it is inactive: -0.333%; for `COc1cc(C(=O)NCC2(N3CCOCC3)CCCCC2)ccc1OCC(C)C` it is inactive: -4.41%.
As for `O=[N+]([O-])c1ccc(-c2cc([N+](=O)[O-])c(O)c([N+](=O)[O-])c2)cc1`, the figure is inactive: -5.93%; as for `O=C(OC1CN2CCC1CC2)c1cccc2[nH]cnc12` (stereo unspecified), inactive: -1.54%; as for `CCN(CC)C(=S)SC(NC=O)C(Cl)(Cl)Cl` (stereo unspecified), inactive: 0.0095%.
Turning to `CC(C)NC(=O)NP(=O)(Oc1ccccc1)Oc1ccccc1`, the FP activity, negative = inhibition is inactive: 20%.
As for `O=[N+]([O-])c1cc([N+](=O)[O-])c(-c2ccn[nH]2)s1`, the figure is inactive: -9.53%; as for `CC(C)c1ccc(OP(=O)(Nc2ccccn2)Oc2ccccc2F)cc1` (stereo unspecified), inactive: -4.58%; as for `COC(=O)C1(C)COP(=O)(N2CCCCCC2)OC1` (stereo unspecified), inactive: -0.4%.
Turning to `ClCCSc1nnc(-c2cccnc2)o1`, the FP activity, negative = inhibition is inactive: -5.99%.
The figure for `COc1ccc2nc(NP(=O)(c3ccccc3)c3ccccc3)sc2c1` is inactive: 4.93%; for `COc1cc(I)ccc1[As](=O)(O)O` it is inactive: -9.75%; for `O=P1(N(CCCl)CCCl)Nc2ccccc2N1` it is inactive: -1.3%.
As for `O=C(OC1CN2CCC1CC2)C12CC3CC(CC(C3)C1)C2` (stereo unspecified), the figure is inactive: 2.23%; as for `Cc1cc(=O)[nH]c(N[N+](=O)[O-])n1`, inactive: -4.72%; as for `Cc1c2c(nc3ccccc13)SC(C(Cl)Cl)C2` (stereo unspecified), inactive: -3%.
The figure for `COc1ccc(N/C(=N/P(=O)(N2CCOCC2)N2CCOCC2)N2CCOCC2)cc1` is inactive: -14.1%; for `O=C(COc1ccccc1)OC1CN2CCC1CC2` (stereo unspecified) it is inactive: -5.39%.
As to `O=C(Nc1ccncc1[N+](=O)[O-])c1ccc([N+](=O)[O-])cc1[N+](=O)[O-]`, the FP activity, negative = inhibition is inactive: 0.791%.
As for `CCC(C)N(CC(C)C)C(=S)SC(NC(C)=O)C(Cl)(Cl)Cl` (stereo unspecified), the figure is inactive: -1.05%.
